{"sequences": {"note": "Sequences of proteins named here, by UniProt entry; tags and fusion partners are left off. Residues count along the entry.", "UniProt P68871, 2-147 limits assumed": "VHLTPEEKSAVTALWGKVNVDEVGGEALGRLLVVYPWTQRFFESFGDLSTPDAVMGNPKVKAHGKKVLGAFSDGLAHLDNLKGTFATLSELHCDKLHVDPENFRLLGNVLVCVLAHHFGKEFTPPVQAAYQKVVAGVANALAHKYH", "UniProt P69905, 2-142 limits assumed": "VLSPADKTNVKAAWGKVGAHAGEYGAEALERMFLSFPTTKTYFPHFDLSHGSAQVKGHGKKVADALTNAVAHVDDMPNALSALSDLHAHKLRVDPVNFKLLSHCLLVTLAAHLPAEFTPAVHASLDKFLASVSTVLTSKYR"}, "source": "patent US20190076507A1", "about": "“Artificial Red Blood Cell Having Ability to Inhibit Conversion of Hemoglobin into Methemoglobin” (Public University Corporation Nara Medical University, priority 2016, published 2019)", "biological_target": "T1, HbO2 (Homo sapiens, UniProt P68871+P69905)", "T1 construct": "The Hb released by hemolysis was filtered and collected, with the red blood cell membrane components (stroma) separated and removed; from tissue; host or cells: human red blood cells (expired donated blood); heat-treated, nanofiltered, purified and concentrated HbCO, photoconverted to HbO2", "assay": "Screening of suppressing effect of compounds against autoxidation of HbO2", "assay_type": "biochemical", "details": "HbO2 10 g/dL, antioxidant 1 g/dL, 37° C., 24 hours", "method": "[…], two antioxidants: quercetin and astaxanthin; water-soluble polymers: […] NADH was purchased from Oriental Yeast Co. Ltd., and all the rest were purchased from Sigma-Aldrich (St. Louis, Mo., USA). HbCO solution was transferred to an eggplant flask and irradiated with visible light (halogen lamp; LPL Videeoligtvl-302, LPLCO. Ltd., Tokyo, Japan) under oxygen gas flow to convert to HbO2. […] The conversion ratios to metHb were determined from the visible absorption spectrum. The measurement of spectrum between 300 nm to 500 nm was conducted using a spectrophotometer (V-660, Japan Spectroscopic Company (JASCO)) mounted with a device to control the light scattering to the minimum (an integrating sphere). The atmosphere inside of a Thunberg cuvette was replaced with nitrogen gas and the conversion ratios to metHb were determined from the ratios of absorbance at 405 nm (λmax of metHb) and 430 nm (λmax of deoxyHb)."}
{"substance": "human albumin: “Benesis”, 25% albumin from donated blood for iv injection, 5 g/20 mL, Japanese Blood Products Organization", "values": [{"measurement": "metHb conversion (%)", "value": 32, "unit": "%"}]}
